Source: patent US20170157251A1, “Bi-Specific Monovalent Diabodies That are Capable of Binding CD19 and CD3, and Uses Thereof” (MacroGenics, Inc., priority 2015, published 2017)

Sequences of proteins named here, by UniProt entry; tags and fusion partners are left off. A change or cut given only in a name is not applied to a line headed by its entry. Residues count along the entry.
UniProt P07766, 23-126 limits assumed: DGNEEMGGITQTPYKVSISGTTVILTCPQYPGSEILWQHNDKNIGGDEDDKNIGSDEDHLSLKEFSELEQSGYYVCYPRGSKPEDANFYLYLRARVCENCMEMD

Target: T1, soluble human CD3ε/δ heterodimer and soluble human CD19-biotin (Homo sapiens, UniProt P07766+P15391)
T1 construct: coated with soluble human CD3ε/δ heterodimer; followed by addition of soluble human CD19-biotin
Experiment: Bifunctional ELISA, simultaneous engagement of both target antigens
Assay type: binding
Description: The plates were washed and the immune complex was detected with chemoluminescent substrate conjugated to streptavidin.

B1: Control DART 2: control DART capable of binding to fluorescein and CD19 (protein)
chain 1: ENVLTQSPATLSVTPGEKATITCRASQSVSYMHWYQQKPGQAPRLLIYDASNRASGVPSRFSGSGSGTDHTLTISSLEAEDAATYYCFQGSVYPFTFGQGTKLEIKGGGSGGGGEVKLDETGGGLVQPGRPMKLSCVASGFTFSDYWMNWVRQSPEKGLEWVAQIRNKPYNYETYYSDSVKGRFTISRDDSKSSVYLQMNNLRVEDMGIYYCTGSYYGMDYWGQGTSVTVSSASTKGEVAACEKEVAALEKEVAALEKEVAALEKGGGDKTHTCPPCPAPEAAGGPSVFLFPPKPKDTLMISRTPEVTCVVVDVSHEDPEVKFNWYVDGVEVHNAKTKPREEQYNSTYRVVSVLTVLHQDWLNGKEYKCKVSNKALPAPIEKTISKAKGQPREPQVYTLPPSREEMTKNQVSLWCLVKGFYPSDIAVEWESNGQPENNYKTTPPVLDSDGSFFLYSKLTVDKSRWQQGNVFSCSVMHEALHNHYTQKSLSLSPGK
chain 2: QAVVTQEPSLTVSPGGTVTLTCRSSTGAVTTSNYANWVQQKPGQAPRGLIGGTNKRAPWTPARFSGSLLGGKAALTITGAQAEDEADYYCALWYSNLWVFGGGTKLTVLGGGGSGGGGEVKLDETGGGLVQPGRPMKLSCVASGFTFSDYWMNWVRQSPEKGLEWVAQIRNKPYNYETYYSDSVKGRFTISRDDSKSSVYLQMNNLRVEDMGIYYCTGSYYGMDYWGQGTSVTVSSASTKGKVAACKEKVAALKEKVAALKEKVAALKE
modifications: Amino Acid Sequence of the First Polypeptide Chain of Control DART 2; Amino Acid Sequence of the Second Polypeptide Chain of Control DART 2
simultaneous binding to both CD19 and CD3: Neither Control DART 1 (▪) nor Control DART 2 (▴) were capable of binding to both targets simultaneously
